In patent US10030103B2, “Stable helical ionic polypeptides” (The Board of Trustees of the University of Illinois, priority 2010, dated 2018):

Tests used:
[1] = Circular dichroism (CD) analysis of polypeptide conformation in aqueous solution; assay type: physicochemical; settings: for decrease of −[θ]222 value: from 4° C. to 70° C.; for pH dependence of −[θ]222 / helical conformation: pH range as stated in the value; for Helical content: (−[θ]222 + 3000)/39,000; for conformation: aqueous solution and solid state; for −[θ]222 versus degree of polymerization: pH 3 (FIG. 11)
[2] = aqueous solution; cited from earlier work
[3] = 25 mM NaCl solutions, c=0.028 mg/mL
[4] = Table 9-2, aqueous solution, pH 2 (pH 10 for (PAOBLG-MPA)10, FIG. 82a)
[5] = Table 1, CD of PVBLG-X in water
[6] = PVBLG-1, charges 11 σ-bonds from backbone

For “Poly(γ-(4-aminoethylthiopropoxyl)-benzyl-L-glutamate) [PAOBLG-AET]”, the “helicity / helical content” value ([1]; degree of polymerization 10, pH 2 aqueous solution) was 81%.

In the case of “Poly(γ-(6-aminohexyl)-L-glutamate)) [PAHG57]”, the “−[θ]222” value [1, 3] is reported as ~14 ×10^3 cm^2·deg/dmol, the “−[θ]222” value ([1]; 4° C., pH 3) is reported as 15,900 cm^2·deg·dmol^−1 and the “−[θ]222” value ([1]; 70° C., pH 3) is reported as 8,700 cm^2·deg·dmol^−1. For the same substance, the “−[θ]222 on change of NaCl concentration” value ([1]; NaCl 0 to 4.68 M, pH 3, 25° C.) was “remained nearly unchanged”, the “conformation by CD” value ([1]; aqueous solution, pH 1) was “α-helical conformation” and the “decrease of −[θ]222 value” ([1]; pH 3) was 45%. For the same substance, the “−[θ]222” value ([1]; pH 1) was 14,000 cm^2·deg·dmol^−1, the “−[θ]222” value ([1]; pH 10) was 14,200 cm^2·deg·dmol^−1 and the “pH dependence of −[θ]222 / helical conformation” value [1] was “remarkable pH-independent helical stability at pH values ranging from 1 to 10”.

For “Poly(γ-(4-aminoethylthiopropoxyl)-benzyl-L-glutamate) [(PAOBLG-AET)50]”, the Helical content ([1]; Table 9-2) was 100%, the “−[θ]222 × 10^−3” value [1, 4] was 36.8 cm^2 · deg · dmol^−1 and the helicity ([1]; pH 2) was 100%. For the same substance, the “−[θ]222” value ([1]; pH 2) was 36.8 ×10^3 cm^2·deg·dmol^−1.

With “methyl-terminated poly(ethylene glycol) block cysteamine hydrochloride grafted poly (O-pentenyl-L-serine) [6b]” the conformation [1] was “β-sheet conformation” and the “solubility in water” value (Water solubility) was “not able to re-dissolve in DI water”.

For “Poly(γ-(4-carboxylic acid benzyl) glutamate)”, the “pH dependence of −[θ]222 / helical conformation” value [1] was “maintains its helical conformation at each pH tested (pH=2-9); also recorded: can maintain its helical conformation traversing each pH tested (pH=2-9)”.

In the case of “poly(γ-(4-(1-hexanol-6-aminomethyl))benzyl-L-glutamate) [(PVBLG-1)142]”, the “−[θ]222 versus length of the polymer” value ([1]; Table 1) is reported as 55,000 cm^2·deg·dmol^−1, the “−[θ]222 × 10^−3” value [1, 5] is reported as 55.0 cm^2 · deg · dmol^−1 and the “−[θ]222 versus degree of polymerization” value [1] is reported as 55,000 deg·cm^2·dmol^−1.

With “poly(γ-(4-(1-hexanol-6-aminomethyl))benzyl-L-glutamate) [(PVBLG-1)40]” the “−[θ]222 versus length of the polymer” value ([1]; Table 1) was 23,100 cm^2·deg·dmol^−1, the “−[θ]222 × 10^−3” value [1, 5] was 23.1 cm^2 · deg · dmol^−1 and the “−[θ]222 versus degree of polymerization” value [1] was 23,200 deg·cm^2·dmol^−1.

For “poly(γ-(4-(1-hexanol-6-aminomethyl))benzyl-L-glutamate) [(PVBLG-1)10]”, the helicity [1, 6] was 26%, the “−[θ]222 versus length of the polymer” value ([1]; Table 1) was 7,200 cm^2·deg·dmol^−1 and the “−[θ]222 × 10^−3” value [1, 5] was 7.2 cm^2 · deg · dmol^−1. For the same substance, the Helical content ([1]; Table 9-2) was 26%, the “−[θ]222 × 10^−3” value [1, 4] was 7.2 cm^2 · deg · dmol^−1 and the helicity ([1]; pH 2) was 26%. The “−[θ]222” value ([1]; pH 2) was 7.2 ×10^3 cm^2·deg·dmol^−1 and the “−[θ]222 versus degree of polymerization” value [1] was 7170 deg·cm^2·dmol^−1.

For Poly(N-hydroxyalkyl-L-glutamine), the helicity [2] is listed as ≤ 65%.

For “Poly(γ-(4-aminoethylthiopropoxyl)-benzyl-L-glutamate) [(PAOBLG-AET)20]”, the Helical content ([1]; Table 9-2) was 94%, the “−[θ]222 × 10^−3” value [1, 4] was 34.0 cm^2 · deg · dmol^−1 and the helicity ([1]; pH 2) was 94%. For the same substance, the “−[θ]222” value ([1]; pH 2) was 34.0 ×10^3 cm^2·deg·dmol^−1.

In the case of “methyl-terminated poly(ethylene glycol) block cysteamine hydrochloride grafted poly (O-allyl-L-serine) [6a]”, the conformation [1] is reported as “β-sheet conformation” and the “solubility in water” value (Water solubility) is reported as “not able to re-dissolve in DI water”.

With “poly(γ-(4-(1-hexanol-6-aminomethyl))benzyl-L-glutamate) [(PVBLG-1)60]” the “−[θ]222” value [1, 3] was ~32 ×10^3 cm^2·deg/dmol, the “−[θ]222” value ([1]; 4° C., pH 3) was 31,700 cm^2·deg·dmol^−1 and the “−[θ]222” value ([1]; 70° C., pH 3) was 25,100 cm^2·deg·dmol^−1. For the same substance, the helicity [1, 6] was 91%, the “−[θ]222 × 10^−3” value [1, 5] was 30.1 cm^2 · deg · dmol^−1 and the “decrease of −[θ]222 value” ([1]; pH 3) was 21%. For the same substance, the “−[θ]222” value ([1]; pH 1) was 32,600 cm^2·deg·dmol^−1, the “−[θ]222 versus degree of polymerization” value [1] was 30,100 deg·cm^2·dmol^−1 and the “pH dependence of −[θ]222 / helical conformation” value [1] was “remained unchanged when the solution's pH was increased from 1 to 10; also recorded: remains unchanged between pH 1 and 10”. For the same substance, the water solubility (Water solubility; pH 1-10) was > 40 mg/kg.

With “poly(γ-(3-aminopropyl)-L-glutamate)) [PAPG57]” the “conformation by CD” value ([1]; aqueous solution, pH 1) was “distorted conformation”.

For “Poly(γ-(4-aminoethylthiopropoxyl)-benzyl-L-glutamate) [(PAOBLG-AET)10]”, the “−[θ]222” value ([1]; 4° C., pH 2, 0.05 mg·mL^−1) was 28,800 cm^2·deg·dmol^−1, the “original helical content maintained” value ([1]; 5M urea) was ~100% and the “−[θ]222” value ([1]; 70° C., pH 2, 0.05 mg·mL^−1) was 21,600 cm^2·deg·dmol^−1. The Helical content ([1]; Table 9-2) was 81%, the “−[θ]222 × 10^−3” value [1, 4] was 28.5 cm^2 · deg · dmol^−1 and the “decrease of −[θ]222 value” ([1]; pH 2) was 25%. The helicity ([1]; pH 2) was 81% and the “−[θ]222” value ([1]; pH 2) was 28.5 ×10^3 cm^2·deg·dmol^−1.

Entries after “also recorded” stand apart in the source; their conditions may differ. Like-named read-outs stand apart in the source and are kept apart here.
